# According to PubChem BioAssay AID645 (SRMLSC, 2007):
# Protein sequences, listed by entry. Tags and fused reporters are not part of them.
# UniProt P04626, whole entry: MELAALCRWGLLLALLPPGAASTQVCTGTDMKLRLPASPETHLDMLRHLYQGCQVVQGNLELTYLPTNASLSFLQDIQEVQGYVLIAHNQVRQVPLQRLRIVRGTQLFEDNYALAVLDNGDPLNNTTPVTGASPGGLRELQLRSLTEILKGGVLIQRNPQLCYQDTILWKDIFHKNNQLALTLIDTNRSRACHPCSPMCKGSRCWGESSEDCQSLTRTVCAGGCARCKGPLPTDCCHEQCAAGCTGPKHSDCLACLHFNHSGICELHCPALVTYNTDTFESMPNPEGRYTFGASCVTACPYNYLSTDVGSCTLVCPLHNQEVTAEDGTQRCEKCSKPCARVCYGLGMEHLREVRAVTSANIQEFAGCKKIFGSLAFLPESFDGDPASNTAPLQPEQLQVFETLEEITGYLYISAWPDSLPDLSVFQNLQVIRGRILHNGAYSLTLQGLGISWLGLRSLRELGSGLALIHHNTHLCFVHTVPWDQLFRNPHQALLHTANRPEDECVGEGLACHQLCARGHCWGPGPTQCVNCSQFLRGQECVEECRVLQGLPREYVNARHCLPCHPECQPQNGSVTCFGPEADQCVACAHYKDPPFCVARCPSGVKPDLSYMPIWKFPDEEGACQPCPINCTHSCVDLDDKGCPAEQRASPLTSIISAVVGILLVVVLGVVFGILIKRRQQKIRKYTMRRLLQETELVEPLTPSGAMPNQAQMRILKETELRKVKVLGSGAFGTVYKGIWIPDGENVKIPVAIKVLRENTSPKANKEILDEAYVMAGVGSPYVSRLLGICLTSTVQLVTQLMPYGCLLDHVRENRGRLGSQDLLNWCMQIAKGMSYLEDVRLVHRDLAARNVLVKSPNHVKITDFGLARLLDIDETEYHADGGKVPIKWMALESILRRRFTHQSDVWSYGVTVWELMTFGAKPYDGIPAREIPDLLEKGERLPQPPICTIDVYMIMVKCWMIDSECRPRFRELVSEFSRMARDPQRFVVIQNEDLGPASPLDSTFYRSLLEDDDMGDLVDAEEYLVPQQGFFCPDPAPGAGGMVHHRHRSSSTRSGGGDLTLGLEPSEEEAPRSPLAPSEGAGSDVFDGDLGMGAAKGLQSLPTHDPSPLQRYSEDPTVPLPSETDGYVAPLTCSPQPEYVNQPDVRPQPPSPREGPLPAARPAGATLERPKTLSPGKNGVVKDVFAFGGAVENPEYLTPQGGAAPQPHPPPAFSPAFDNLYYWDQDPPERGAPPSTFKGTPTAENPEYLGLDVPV
# Only a part is listed here, and it is no random draw. Some results for these compounds are left out of this collection, so the calls shown say nothing about other tests. Activity calls are given as the source filed them.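 Rule for the calls: active = HER2 level under 5% of the carrier-only control; inconclusive = no clear call, values can overlap the other calls; inactive = the rest.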
# Molecular target: Receptor tyrosine-protein kinase erbB-2 (Homo sapiens) (UniProt P04626)
# Assay: reducers of endogenous HER2 protein levels – SKBR-3 cells, AlphaScreen, 66K library, primary screen (AID 645);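 note: 100% = DMSO carrier and 0% = 500 nM PU-H71 HSP90 inhibitor; lower value means stronger loss of Her2 protein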
# Details: SKBR-3 HER2 protein level, 18-24 h, at 10 µM, hits give low values
row,Structure (SMILES),HER2 level % of control
1,CN(C)c1cccc(C(=O)NCC2(N(C)C)CCCCC2)c1,active: -21.8%
2,O=C(OC1CN2CCC1CC2)C(CO)(c1ccccc1)c1ccccc1 (configuration not stated),inactive: 87.4%
